This note sets out measurements from ChEMBL document CHEMBL1125951, “Synthesis and dopaminergic activity of the enantiomers of 6-methyl-4,5a,6,7,8-hexahydrothiazolo[4,5-f]quinolin-2-amine (PD 128483)” (Bioorg Med Chem Lett, 1991).

The chains behind the UniProt entries cited, without tags or fusion partners. Where a name states a change or a piece, a line headed by the entry shows the natural chain unless it says otherwise.
UniProt P18901: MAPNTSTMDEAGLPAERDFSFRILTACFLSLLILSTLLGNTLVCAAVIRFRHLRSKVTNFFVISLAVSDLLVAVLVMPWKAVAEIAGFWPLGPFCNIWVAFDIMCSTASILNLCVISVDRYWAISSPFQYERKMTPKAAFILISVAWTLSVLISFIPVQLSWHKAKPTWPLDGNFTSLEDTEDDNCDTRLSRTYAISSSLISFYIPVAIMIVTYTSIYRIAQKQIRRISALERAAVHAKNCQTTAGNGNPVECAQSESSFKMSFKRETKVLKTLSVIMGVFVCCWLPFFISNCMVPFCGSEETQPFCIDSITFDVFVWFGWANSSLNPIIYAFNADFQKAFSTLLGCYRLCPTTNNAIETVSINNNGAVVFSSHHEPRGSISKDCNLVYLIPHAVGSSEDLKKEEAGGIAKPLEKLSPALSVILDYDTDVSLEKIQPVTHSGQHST
UniProt P61169, whole entry: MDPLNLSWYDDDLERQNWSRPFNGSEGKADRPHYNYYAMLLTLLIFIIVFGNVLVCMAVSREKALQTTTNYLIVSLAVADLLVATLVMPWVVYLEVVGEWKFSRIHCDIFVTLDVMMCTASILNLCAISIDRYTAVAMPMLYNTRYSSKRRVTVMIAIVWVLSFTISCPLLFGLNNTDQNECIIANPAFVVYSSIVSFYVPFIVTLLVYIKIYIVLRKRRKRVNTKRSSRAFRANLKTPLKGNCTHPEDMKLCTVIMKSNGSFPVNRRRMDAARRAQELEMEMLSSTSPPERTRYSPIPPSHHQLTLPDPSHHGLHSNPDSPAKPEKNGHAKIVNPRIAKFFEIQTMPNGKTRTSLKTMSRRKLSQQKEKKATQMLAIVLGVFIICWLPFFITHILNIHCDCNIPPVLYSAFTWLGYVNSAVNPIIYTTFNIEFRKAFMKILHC

In assay [1] the target is Dopamine receptors; D1 & D2 (Rattus norvegicus, UniProt P18901+P61169). Description: In vitro binding affinity to Dopamine receptor D1/Dopamine receptor D2 in rat striatal membranes using [3H]N-propylnorapomorphine. It is filed as cell membranes, Striatum, Membrane.
The target of the next assay is D(2) dopamine receptor (Rattus norvegicus, UniProt P61169). The assay can be described thus: In vitro binding affinity to Dopamine receptor D2 in rat striatal membranes using D2 antagonist [3H]spiperone. It is filed as cell membranes, Striatum, Membrane.

Take `CCCN1CCC=C2c3nc(N)sc3CC[C@@H]21`: in assay [1], the IC50 amounted to 295 nM. This lies in the sub-micromolar range.

As to `CCCN1CCC=C2c3nc(N)sc3CC[C@H]21`, the figures for the IC50 (in assay [1]; at D(2) dopamine receptor) were 138 nM and 860 nM, respectively.
